Laboratory results taken from US10407441B2, “Compositions and methods for treating neoplasia, inflammatory disease and other disorders” (Dana-Farber Cancer Institute, Inc., priority 2010, dated 2019).

System: NMC 797 and Per403 cells
Experiment: Differentiation and proliferation immunohistochemistry in NMC cells
Type: cell-based, human

Cc1sc2c(c1C)C(c1ccc(Cl)cc1)=NC(CC(=O)OC(C)(C)C)c1nnc(C)n1-2 (racemic) [JQ1, tert-Butyl 2-(4-(4-chlorophenyl)-2,3,9-trimethyl-6H-thieno[3,2-f][1,2,4]triazolo[4,3-a][1,4]diazepin-6-yl)acetate]
time to differentiation: < 24 h
